Binding of CDR-mutated scFvs to a peptide of the spike HR2 region

Reference: Engelhart et al. 2022, doi:10.1038/s41597-022-01779-4. File: FLAb, binding data.

Target peptide (SARS-CoV-2 spike, HR2 region): PDVDLGDISGINAS

The variants keep the heavy chain, the linker and the frameworks of Ab-95 (scFv order VH, a (GGGGS)3 linker, VL).
VH: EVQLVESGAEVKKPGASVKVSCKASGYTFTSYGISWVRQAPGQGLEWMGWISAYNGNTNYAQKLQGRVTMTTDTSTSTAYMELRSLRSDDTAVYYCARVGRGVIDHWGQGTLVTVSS
VL: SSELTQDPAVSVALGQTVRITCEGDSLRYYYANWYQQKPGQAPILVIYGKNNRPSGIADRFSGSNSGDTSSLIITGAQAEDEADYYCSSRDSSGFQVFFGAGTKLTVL

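Phage display of a naive human antibody library on the peptide gave the parent. The library (AAYL52) carries one to three amino acid substitutions per variant, with no insertions or deletions. In AlphaSeq, yeast of one mating type display the scFv and yeast of the other type display the target. Mating (16 h, 30 °C) was followed by selection of diploids and sequencing of their barcodes. The ratio of observed to expected reads was calibrated, replicate by replicate, on BCL2-family standards whose Kd was known from biolayer interferometry. There are three technical replicates.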

The parent's light chain CDRs are EGDSLRYYYAN, GKNNRPS, SSRDSSGFQVF; each variant's own CDRs replace them letter for letter. All variants listed here change D91 of the VL, counted from its first residue. Scale: log10 of Kd in nM, estimated from mating counts; low values are strong binders. The mean shown is taken over the replicates in which the pair was detected. "no signal" marks a missing value. The strain was present, yet no cells mated with the target were sequenced in any replicate, which points to weak or no binding.

For EGDSLRYYYAN | KKNNRPW | SSRESSGFQVF, the assay gave 3.61 (2 of 3 replicates; controls 2 of 9). Variant EGDSLRYYYAN | GLNNRPS | SSRGSSGFQVR showed no signal (0 of 3 replicates; controls 1 of 9). Variant EGDSLRYYYAN | GKNNRPS | SSRLSEGCQVF gave 4.04 (2 of 3 replicates; controls 3 of 9). Variant EGPSLRYYYAN | GDNNRPS | SSRQSSGFQVF gave 3.42 (3 of 3 replicates; controls 3 of 9). Variant ENDSLRYYYAN | GKNNRQS | SSRASSGFQVF showed no signal (0 of 3 replicates; controls 1 of 9). For EGDMLRYYYAK | GKNNRPS | SSRNSSGFQVF, the assay gave 3.72 (1 of 3 replicates; controls 0 of 9). Variant EKDPLRYYYAN | GKNNRPS | SSRNSSGFQVF showed no signal (0 of 3 replicates; controls 0 of 9).

With EGDSLRYYYAN | GHNNRPS | SDRRSSGFQVF the result was 3.25 (1 of 3 replicates; controls 2 of 9). Variant EGDMLRYYYAN | GKNNRPS | SSRFSSGFDVF gave 3.04 (1 of 3 replicates; controls 1 of 9). Variant EGDSLRYYYAN | KKRNRPS | SSRWSSGFQVF gave 3.96 (1 of 3 replicates; controls 2 of 9). For EGDSNRYYYAN | GKNNRPS | SSRKSCGFQVF, the assay gave 3.83 (1 of 3 replicates; controls 3 of 9). Variant EGDSLRYCYAN | GKNNRPS | SSRMSSGFQDF gave 4.04 (1 of 3 replicates; controls 3 of 9). Variant EGDSPRYYYAN | GKNNRPS | SSRMSSGIQVF showed no signal (0 of 3 replicates; controls 2 of 9). Variant EGDSLRYYYAN | GKNNRPS | SSRHSSGFQVF showed 2.19 (2 of 3 replicates; controls 1 of 9).

Variant EGDSLRYYYAN | GKNNPPS | SSRKSSGFQVF showed 4.47 (2 of 3 replicates; controls 3 of 9). With EGDSLRYYYAN | GKCNRPY | SSRHSSGFQVF the result was 4.20 (3 of 3 replicates; controls 3 of 9). Variant EGDCLRYYYAN | GKNNRPS | SSRCSSGFQVF showed 3.86 (2 of 3 replicates; controls 2 of 9). With EYDSLRYYYAN | GKNNRPS | ESRVSSGFQVF the result was 4.47 (2 of 3 replicates; controls 1 of 9). Variant EGDCLRYYYAN | FKNNRPS | SSRFSSGFQVF gave 3.93 (2 of 3 replicates; controls 3 of 9). Variant EGDSLRYYYAN | VKNNRPG | SSRESSGFQVF gave 3.98 (1 of 3 replicates; controls 3 of 9). With EGDSLRYYFAN | GRNNRPS | SSRESSGFQVF the result was 4.28 (2 of 3 replicates; controls 2 of 9).

For EGDSLRYYYAN | GKNNRPS | SSRTSNGPQVF, the assay gave 4.51 (1 of 3 replicates; controls 3 of 9). For EGDSLRYYYAN | GKNNRPS | SSRRSSMFVVF, the assay gave 3.53 (1 of 3 replicates; controls 3 of 9). For EGDSLRYYYAN | GKNNRPS | SSRWSSGFQGF, the assay gave 4.51 (1 of 3 replicates; controls 2 of 9). With EGDSLRYYYAN | GKNNRPS | SYRASSIFQVF the result was 3.31 (3 of 3 replicates; controls 1 of 9). With EGDSLRYGYAN | GKNIRPS | SSRFSSGFQVF the result was 1.56 (3 of 3 replicates; controls 1 of 9). Variant EGYSLRYYYSN | GKNNRPS | SSRNSSGFQVF gave 4.78 (1 of 3 replicates; controls 3 of 9). For EGDSLRYYYAN | GNNARPS | SSRFSSGFQVF, the assay gave 2.50 (3 of 3 replicates; controls 6 of 9).

Variant EGDSLRYYYAN | GKNNRPS | SSRPSSGFQNF showed 2.14 (3 of 3 replicates; controls 2 of 9). Variant EGDSLAIYYAN | GKNNRPS | SSRASSGFQVF gave no signal (0 of 3 replicates; controls 0 of 9). Variant ELDSLRYYYAL | GKNNRPS | SSRQSSGFQVF showed no signal (0 of 3 replicates; controls 1 of 9). With EGDSLRYYYAN | GKNNRPS | SSRVSSGEQVF the result was 2.44 (2 of 3 replicates; controls 1 of 9). With EGDSLRYYYAN | GKNNRPS | SSRHSEGFAVF the result was 2.36 (3 of 3 replicates; controls 4 of 9). For EGDSLRYYYAN | GKNNRPS | SSRGSTGFQVF, the assay gave 2.61 (3 of 3 replicates; controls 4 of 9). With EGDSLRYYYAN | GKNSRPS | SMRASSGFQVF the result was 3.72 (2 of 3 replicates; controls 3 of 9).

With EGDSLWYYYAG | GKNNRPS | SSRLSSGFQVF the result was 5.34 (1 of 3 replicates; controls 4 of 9). For EGDELRYYYAY | GKNNRPS | SSRHSSGFQVF, the assay gave 5.23 (1 of 3 replicates; controls 6 of 9). Variant EGDSLRFYYAN | GKFNRPS | SSRNSSGFQVF gave 2.90 (3 of 3 replicates; controls 4 of 9). With EGDSLRYCYAN | GKNNRES | SSRCSSGFQVF the result was 4.84 (2 of 3 replicates; controls 1 of 9). With EGDSLRYYYAN | GKNNRPM | ASRTSSGFQVF the result was 2.83 (3 of 3 replicates; controls 3 of 9). With EFDSLRYYYAN | GKNNRPS | SSRYSSGFQVR the result was 3.58 (2 of 3 replicates; controls 3 of 9). For EGRSLRYYYAN | GKNNRPS | RSRLSSGFQVF, the assay gave 3.13 (1 of 3 replicates; controls 0 of 9).

Variant EGDSLRYYYAN | GKNNRGS | ESRNSSGFQVF showed 2.95 (3 of 3 replicates; controls 6 of 9).

The 4 strongest on average among those seen in every replicate, once more:

CDR-L1	CDR-L2	CDR-L3	mean log10 Kd (nM)	replicates with signal	control signals
EGDSLRYGYAN	GKNIRPS	SSRFSSGFQVF	1.56	3/3	1/9
EGDSLRYYYAN	GKNNRPS	SSRPSSGFQNF	2.14	3/3	2/9
EGDSLRYYYAN	GKNNRPS	SSRHSEGFAVF	2.36	3/3	4/9
EGDSLRYYYAN	GNNARPS	SSRFSSGFQVF	2.50	3/3	6/9

For reference, the parent read 2.31 as the reference entry and 2.25 as a member of this library. Empty control strains, which show no peptide, gave a signal in 28% of pairings with library AAYL52; the median was 3.91 and 95% of these signals were weaker than 2.90. No background was subtracted. The control count says in how many pairings with the empty strains this scFv gave a signal.